# Assay results: patent publication EP4553077A1 (Kinoteck Therapeutics Co., Ltd, priority 2022, dated 2024)
# Sequences of proteins named here, by UniProt entry; tags and fusion partners are left off. A change or cut given only in a name is not applied to a line headed by its entry. Residues count along the entry.
# UniProt P21802, 481-770 limits assumed: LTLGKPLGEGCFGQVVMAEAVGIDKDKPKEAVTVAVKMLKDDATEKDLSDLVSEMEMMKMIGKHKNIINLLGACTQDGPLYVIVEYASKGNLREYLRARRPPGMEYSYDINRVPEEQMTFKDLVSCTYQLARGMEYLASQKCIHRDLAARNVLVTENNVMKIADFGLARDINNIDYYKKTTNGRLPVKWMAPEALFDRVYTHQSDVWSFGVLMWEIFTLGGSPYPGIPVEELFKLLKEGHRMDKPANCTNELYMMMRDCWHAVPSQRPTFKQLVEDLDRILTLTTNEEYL
# UniProt P41212: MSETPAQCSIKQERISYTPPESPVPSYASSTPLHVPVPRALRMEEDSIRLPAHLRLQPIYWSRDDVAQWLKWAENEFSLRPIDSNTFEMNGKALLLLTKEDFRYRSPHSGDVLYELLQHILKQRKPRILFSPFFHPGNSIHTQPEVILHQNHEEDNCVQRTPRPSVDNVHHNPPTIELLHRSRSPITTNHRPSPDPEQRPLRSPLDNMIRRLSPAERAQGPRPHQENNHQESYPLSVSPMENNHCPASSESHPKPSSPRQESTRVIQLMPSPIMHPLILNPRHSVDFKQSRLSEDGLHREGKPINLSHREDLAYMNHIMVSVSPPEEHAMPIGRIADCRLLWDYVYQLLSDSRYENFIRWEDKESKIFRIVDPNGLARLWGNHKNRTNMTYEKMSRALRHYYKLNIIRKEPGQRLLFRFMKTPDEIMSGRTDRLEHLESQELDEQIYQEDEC
# Target: Ba/F3-TEL-FGFR2 (Homo sapiens, UniProt P21802+P41212)
# Assay: Cell viability (proliferation inhibition) of Ba/F3 cells, CellTiter Glo
# Conditions: read-out: Ba/F3 cell FGFR2 (IC50 nM), 72 h
substance,measurement,value
"N- (4- (4-amino-7-methyl-5- (6- (1-oxotetrahydro-1 λ^6-thiophene-1-ylidene) amino) pyridin-3-yl) -7H-pyrrolo [2,3-d] pyrimidin-6-yl) phenyl) methacrylamide [Compound 29]",IC50,1210 nM
